For 1 compound, IC50 results are on record in patent publication US8263636B2, “Dual alanyl aminopeptidase and dipeptidyl peptidase iv inhibitors for functionally influencing different cells and for treating immunological inflammatory, neuronal and other diseases” (IMTM GmbH, priority 2003, dated 2012).

Protein sequences, listed by entry. Tags and fused reporters are not part of them. Lines headed by an entry give the natural chain unless they say otherwise; changes in a name come on top.
UniProt P15144: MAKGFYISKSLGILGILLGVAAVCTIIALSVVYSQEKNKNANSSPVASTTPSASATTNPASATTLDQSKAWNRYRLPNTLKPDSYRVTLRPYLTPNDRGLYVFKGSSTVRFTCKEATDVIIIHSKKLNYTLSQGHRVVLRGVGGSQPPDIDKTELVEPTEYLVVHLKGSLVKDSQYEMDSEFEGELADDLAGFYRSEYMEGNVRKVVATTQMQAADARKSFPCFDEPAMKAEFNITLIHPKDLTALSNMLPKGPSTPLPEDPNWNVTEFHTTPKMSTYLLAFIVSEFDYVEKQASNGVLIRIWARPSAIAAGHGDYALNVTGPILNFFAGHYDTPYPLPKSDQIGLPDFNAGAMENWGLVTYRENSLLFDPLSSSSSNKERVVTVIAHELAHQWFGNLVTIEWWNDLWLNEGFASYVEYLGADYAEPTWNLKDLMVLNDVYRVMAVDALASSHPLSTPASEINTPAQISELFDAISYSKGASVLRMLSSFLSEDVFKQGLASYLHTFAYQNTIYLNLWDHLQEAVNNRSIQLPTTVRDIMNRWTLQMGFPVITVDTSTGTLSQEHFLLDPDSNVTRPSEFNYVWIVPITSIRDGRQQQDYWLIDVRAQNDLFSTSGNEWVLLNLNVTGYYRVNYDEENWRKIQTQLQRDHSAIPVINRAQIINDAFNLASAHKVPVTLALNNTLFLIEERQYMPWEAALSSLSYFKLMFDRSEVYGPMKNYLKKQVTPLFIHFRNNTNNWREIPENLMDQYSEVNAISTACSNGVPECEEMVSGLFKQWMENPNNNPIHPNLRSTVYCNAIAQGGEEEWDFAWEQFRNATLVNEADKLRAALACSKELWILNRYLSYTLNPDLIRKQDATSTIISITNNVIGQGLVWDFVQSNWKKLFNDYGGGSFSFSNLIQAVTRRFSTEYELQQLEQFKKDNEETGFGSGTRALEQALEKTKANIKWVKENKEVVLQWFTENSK

The assay concerns the target alanyl aminopeptidase (APN) (Homo sapiens, UniProt P15144). As to the kind of experiment: Inhibition of alanyl aminopeptidase enzymatic activity, fluorogenic substrate (Ala)2-rhodamine. The class given is biochemical. Conditions: read-out: IC50 APN, unmarked = IC-50.

SMILES strings stand for the structures. Read-outs that look alike come from different tables or passages of the source.

For the compound `Cc1cc(N(C)C)cc[n+]1C(=O)N(C)C`, the IC50 (Table 8, second value of cell) is 27.6 µM and the IC50 (second value of cell DPIV/APN) came to 27.6 µM.
